# scFv variants of Ab-14 (light chain) against a SARS-CoV-2 spike peptide

From the AlphaSeq antibody data of Li et al. 2023 (doi:10.1038/s41467-023-39022-2), copy in the FLAb collection.

The target is the same throughout: PDVDLGDISGINAS, from the HR2 region of SARS-CoV-2 spike.

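The parent was found by panning a naive human phage display library on the peptide. The variants were designed computationally from a first round of random CDR variants and then made and measured. Their group label is 14L_En_HC (En: ensemble of fine-tuned language models; HC: hill climbing; a sequence that several methods proposed may carry one label only). The scFvs were displayed on barcoded MATa yeast, the peptide on MATalpha yeast. Mating (16 h, 30 °C) was followed by selection of diploids and sequencing of their barcodes. The ratio of observed to expected reads was calibrated, replicate by replicate, on BCL2-family standards whose Kd was known from biolayer interferometry. Mating was done six times.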

The variants keep the heavy chain, the linker and the frameworks of Ab-14 (scFv order VH, a (GGGGS)3 linker, VL).
VH: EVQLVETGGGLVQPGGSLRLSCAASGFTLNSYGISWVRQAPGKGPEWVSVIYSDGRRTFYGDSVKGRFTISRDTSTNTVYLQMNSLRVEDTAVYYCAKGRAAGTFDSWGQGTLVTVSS
VL: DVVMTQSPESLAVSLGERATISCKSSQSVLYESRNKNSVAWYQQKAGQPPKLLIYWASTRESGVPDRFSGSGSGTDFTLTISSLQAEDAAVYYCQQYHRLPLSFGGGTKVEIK

Variants are written as CDR1, CDR2 and CDR3 of the light chain (limits as in the source). Parent: KSSQSVLYESRNKNSVA, WASTRES, QQYHRLPLS. Affinities are written as log10 Kd with Kd in nM; a lower number is a better binder. Replicates are averaged; those with no signal do not enter the mean. Where no diploid with the target was found in that replicate, the entry reads "n.d.": below detection, most likely a poor binder, though not proof of it.

| CDR-L1 | CDR-L2 | CDR-L3 | replicates, log10 nM | mean log10 Kd (nM) | empty controls |
|---|---|---|---|---|---|
| KLREVIHVESKQKNNVA | DNSTREQ | QDYHRLPLS | n.d. / 2.23 / 0.97 / 0.93 / 2.58 / 1.81 | 1.70 | 1 of 18 (2.77) |
| KISMLSRYESQNKNSIA | EMSRREN | QQYHRLPLS | 0.43 / 0.44 / 0.61 / 0.18 / 0.30 / 0.29 | 0.38 | 1 of 18 (2.43) |
| KLSQVTEYEMHNRDNVA | DLTTRGR | QDYHRLPLS | 0.11 / 0.19 / 0.26 / -0.23 / -0.27 / 0.09 | 0.03 | 0 of 18 |
| QILMATMQETYNRNSVA | HAETRED | QSYHRLPLS | 0.96 / 0.80 / 0.65 / 0.85 / 1.03 / 1.28 | 0.93 | 1 of 18 (2.17) |
| TVSQVHGMLSHDKNSVA | DMNTRGS | QQYDRLPLS | 0.72 / 2.59 / 2.10 / 0.37 / 1.58 / 1.69 | 1.51 | 0 of 18 |
| TISQSTYWEERNKNSVA | QTSTREE | QDYDRLPLS | 1.83 / 1.46 / 1.04 / 1.48 / 1.58 / 1.00 | 1.40 | 1 of 18 (2.17) |
| MISDLMNYGSRNKNPIA | NASTREY | QQYHRLPLE | 0.70 / 1.39 / 0.84 / 0.82 / 0.94 / 1.11 | 0.97 | 1 of 18 (2.72) |
| KISQVFMMTGKLKNSVA | NAYTRVQ | QQYHRLPLS | 0.32 / 2.62 / n.d. / 0.16 / 1.70 / n.d. | 1.20 | 0 of 18 |
| KLRMVTGYESRNKDSIA | DNSTRGR | QQYHRLPLS | 1.36 / 1.02 / 1.29 / 0.90 / 1.22 / 1.43 | 1.20 | 3 of 18 (2.45) |
| TISTSMRYESSLKNAIA | NAQTREY | QQYHRLPIS | 1.16 / 0.60 / 0.71 / 0.75 / 0.82 / 0.80 | 0.80 | 1 of 18 (2.40) |
| KLSVMTSYLSVNKNSVA | EMTTREN | QQYDRLPLS | 1.41 / 1.97 / 2.49 / 1.93 / 1.72 / 1.19 | 1.78 | 0 of 18 |
| MAYGGDMLESVARNSVA | NAETRAD | QDYHRLPLS | 0.67 / 0.94 / 0.43 / 0.50 / 0.30 / 0.55 | 0.56 | 0 of 18 |
| MISQSFLIGMKAKNSVA | QTSTREE | QQYDRLPLM | 0.24 / 0.26 / 0.00 / 0.15 / 0.30 / 0.39 | 0.22 | 2 of 18 (3.02) |
| KISQMVTYESTWHNAIA | QTSEREE | QQYHRLPLS | 0.27 / 0.52 / 0.19 / -0.06 / 0.18 / 0.49 | 0.27 | 1 of 18 (2.53) |
| KLGSMVLLEYGNTNSIA | QQSTREE | QQYDRLPLS | 0.92 / 1.67 / 1.23 / 0.77 / 1.03 / 1.09 | 1.12 | 0 of 18 |
| ILSQMMLAAGNKHSSVA | QANNRND | QQYHRLPLS | n.d. / n.d. / n.d. / n.d. / n.d. / n.d. | n.d. | 0 of 18 |
| TISTSMRYESSLRNAIA | NAQTRES | QQYHRLPLS | 0.34 / 0.63 / 0.70 / 0.36 / 0.49 / 0.77 | 0.55 | 2 of 18 (3.68) |
| KLYQSTVIESFNKNNVA | EMSTRES | QSYDRLPLS | 1.73 / 1.21 / 1.13 / 1.46 / 1.23 / 1.31 | 1.35 | 2 of 18 (2.95) |
| TISQSSNMTSHGRNSVA | QAEMRES | QQYDRLPLS | 2.03 / 1.33 / 1.31 / 1.22 / 1.29 / 1.37 | 1.43 | 0 of 18 |
| HISQSVGMTLRNKNSVA | ENSTRED | QQYDRLPLS | 2.03 / 1.92 / 1.94 / 2.18 / 2.47 / 1.97 | 2.08 | 3 of 18 (2.74) |
| HISMMVGTKGYNKNSVA | NAETRSD | QQYHRLPLS | 0.99 / 0.80 / 0.58 / 0.52 / 0.73 / 0.91 | 0.76 | 1 of 18 (2.49) |
| KLLQVTENMMLNRNSVA | HMSTRED | QQYHRLPLS | 0.60 / 0.22 / 0.65 / 0.21 / 0.46 / 0.54 | 0.45 | 1 of 18 (2.09) |
| TIAQSMVYLSNLKNSIA | QAETRED | QQYHRLPIS | 1.22 / 0.44 / 0.95 / 0.62 / 0.54 / 0.62 | 0.73 | 1 of 18 (1.88) |
| ALGDVTRMESNKKNSIA | DMSNRED | QQYHRLPLS | -0.13 / -0.31 / -0.52 / -0.55 / -0.37 / -0.37 | -0.38 | 0 of 18 |
| KIASSMNMTSHHINSVA | QSTTREE | QQYNHLPLS | 0.43 / 0.60 / 0.44 / 0.21 / 0.61 / 0.43 | 0.45 | 0 of 18 |
| KLGQSVAMTSRIKNNVA | DLNERER | QQYDRLPLS | 0.56 / 0.47 / 0.52 / 0.08 / 0.02 / 0.36 | 0.34 | 0 of 18 |
| KLTMSYRFLTEEKNSIA | ELVTRMS | QQYHRLPLS | 1.34 / 1.97 / 0.44 / 0.41 / 0.87 / 0.84 | 0.98 | 0 of 18 |
| MISDMGLHDSRMQNSVA | NNSTRES | QQYHRLPLS | 2.12 / 1.26 / 1.38 / 1.54 / 1.72 / 2.26 | 1.71 | 2 of 18 (3.65) |
| KISYQYRFEQLSKDNIA | EVVTRLK | QQYHRLPLS | n.d. / 3.26 / 2.74 / 2.48 / 2.79 / 2.01 | 2.66 | 1 of 18 (2.88) |
| KISQMYRYENQNHSSIA | EMNTREQ | QSYHRLPLS | n.d. / n.d. / 2.83 / n.d. / n.d. / n.d. | 2.83 | 2 of 18 (2.28) |

Extract of 2 entries:

{"CDR-L1": "KLGQSVAMTSRIKNNVA", "CDR-L2": "DLNERER", "CDR-L3": "QQYDRLPLS", "replicates, log10 nM": "0.56 / 0.47 / 0.52 / 0.08 / 0.02 / 0.36", "mean log10 Kd (nM)": "0.34", "empty controls": "0 of 18"}
{"CDR-L1": "TISQSTYWEERNKNSVA", "CDR-L2": "QTSTREE", "CDR-L3": "QDYDRLPLS", "replicates, log10 nM": "1.83 / 1.46 / 1.04 / 1.48 / 1.58 / 1.00", "mean log10 Kd (nM)": "1.40", "empty controls": "1 of 18 (2.17)"}

Empty control strains, which show no peptide, gave a signal in 4% of pairings with all light chain designs; the median was 2.64 and 95% of these signals were weaker than 1.59. No background was subtracted. For each scFv, signals with the empty controls are counted beside the result, with their mean in brackets. Of ten entries with the parent sequence, four were seen in most replicates (averages 0.34 to 2.37), three in one and three in none, so single entries are noisy. A sequence measured in both rounds can read differently, since the two assays cover different ranges. In the paper, a design with two or fewer of six values counts as a poor binder.